In assay [1] the target is D(3) dopamine receptor (Homo sapiens) (UniProt P35462). Briefly: Displacement of [3H]spiperone form human recombinant D3 receptor expressed in CHO cells at 10 uM. The assay is classed as cell-based. (In general: In a radioligand displacement assay an active substance lowers the binding of a labelled ligand.)
The target in assay [2] is Calcium/calmodulin-dependent protein kinase kinase 2 (Rattus norvegicus) (UniProt O88831). In words: Inhibition of rat brain CAM kinase 2 using autocamtide as substrate and [gamma-33P] at 10 uM by scintillation counting.
The species entered for assay [3] is Rattus norvegicus. In words: Displacement of [3H]-CGP39653 from NMDA glutaminergic receptor in rat cerebral cortex at 10 uM. The assay is classed as tissue-based.
Assay [4] in a line: Inhibition of protein kinase A at 100 uM.
The species named for assay [5] is Rattus norvegicus. In words: Displacement of [3H]cytisine from alpha-BGTX-insensitive neuronal nicotinic receptor in rat cerebral cortex at 10 uM. The assay is classed as tissue-based.
The species entered for assay [6] is Rattus norvegicus. In words: Displacement of [3H]-AMPA from AMPA glutaminergic receptor in rat cerebral cortex at 10 uM. The assay is classed as tissue-based.
Assay [7] has as its target D(2) dopamine receptor (Homo sapiens) (UniProt P14416). In words: Displacement of [3H]spiperone form human recombinant D2 receptor expressed in CHO cells at 10 uM. The assay is classed as cell-based.
Assay [8] in a line: Inhibition of GSK3 in granule cerebellar neurons assessed as […] of tau phosphorylation at 25 uM after 16 hrs by Western blot analysis.
Assay [9] concerns the target Epidermal growth factor receptor (Homo sapiens) (UniProt P00533). Briefly: Inhibition of EGFR kinase in human A431 cells using poly GAT as substrate and [gamma-33P]ATP at 10 uM by scintillation counting. The assay is classed as cell-based. The following applies: A-431.
The target in assay [10] is Insulin receptor (Homo sapiens) (UniProt P06213). Briefly: Inhibition of human recombinant IRK using poly GT as substrate and [gamma-33P]ATP at 10 uM by scintillation counting.
Assay [11] concerns the target Proto-oncogene tyrosine-protein kinase Src (Homo sapiens) (UniProt P12931). Briefly: Inhibition of Src kinase at 10 uM.
The species named for another assay is Bos taurus. Briefly: Inhibition of bovine thymus protein kinase p56 using poly GT as substrate and [gamma-33P]ATP at 10 uM by scintillation counting.
Assay [12] deals with Adrenergic receptor alpha-2 (Rattus norvegicus) (UniProt P22086+P19328+P22909). In words: Displacement of [3H]-RX821002 from adrenergic A2 receptor in rat cerebral cortex at 10 uM. The assay is classed as tissue-based.
A short description of assay [13]: Inhibition of GSK3 in granule cerebellar neurons assessed as decrease of tau phosphorylation at Ser396 at 25 uM after 16 hrs by Western blot analysis. A general note: A western blot detects proteins with antibodies after separation by electrophoresis.
For assay [14], the species on record is Rattus norvegicus. In words: Displacement of [3H]serotonine from 5-HT receptor in rat cerebral cortex at 10 uM. The assay is classed as tissue-based.

The chains behind the UniProt entries cited, without tags or fusion partners.
UniProt P35462, whole entry, looked up: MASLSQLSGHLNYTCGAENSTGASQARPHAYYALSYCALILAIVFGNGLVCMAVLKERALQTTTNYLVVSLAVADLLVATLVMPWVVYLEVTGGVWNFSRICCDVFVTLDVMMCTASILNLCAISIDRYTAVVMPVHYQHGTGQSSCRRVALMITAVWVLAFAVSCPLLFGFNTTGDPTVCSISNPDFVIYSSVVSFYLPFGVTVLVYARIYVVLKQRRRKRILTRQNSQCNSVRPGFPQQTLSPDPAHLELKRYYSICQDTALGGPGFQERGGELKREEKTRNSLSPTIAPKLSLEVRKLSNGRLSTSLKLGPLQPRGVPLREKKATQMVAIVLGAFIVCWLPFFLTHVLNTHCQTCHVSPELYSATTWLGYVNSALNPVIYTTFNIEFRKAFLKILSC
UniProt O88831, whole entry, looked up: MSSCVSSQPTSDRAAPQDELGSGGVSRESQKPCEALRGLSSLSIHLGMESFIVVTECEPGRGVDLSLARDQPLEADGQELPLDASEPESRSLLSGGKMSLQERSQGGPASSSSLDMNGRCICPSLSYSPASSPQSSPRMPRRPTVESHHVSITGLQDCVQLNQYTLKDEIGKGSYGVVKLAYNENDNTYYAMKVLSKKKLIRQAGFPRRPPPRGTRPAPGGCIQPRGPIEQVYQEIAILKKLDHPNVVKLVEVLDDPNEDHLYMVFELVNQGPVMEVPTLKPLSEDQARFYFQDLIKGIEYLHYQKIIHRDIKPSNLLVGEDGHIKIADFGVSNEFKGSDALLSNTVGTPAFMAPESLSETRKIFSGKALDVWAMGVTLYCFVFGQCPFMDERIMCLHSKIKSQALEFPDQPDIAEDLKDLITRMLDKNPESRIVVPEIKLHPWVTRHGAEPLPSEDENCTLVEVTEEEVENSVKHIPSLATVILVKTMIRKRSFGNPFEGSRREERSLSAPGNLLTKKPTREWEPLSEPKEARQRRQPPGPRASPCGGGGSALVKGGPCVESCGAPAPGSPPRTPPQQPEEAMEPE
UniProt P14416, whole entry, looked up: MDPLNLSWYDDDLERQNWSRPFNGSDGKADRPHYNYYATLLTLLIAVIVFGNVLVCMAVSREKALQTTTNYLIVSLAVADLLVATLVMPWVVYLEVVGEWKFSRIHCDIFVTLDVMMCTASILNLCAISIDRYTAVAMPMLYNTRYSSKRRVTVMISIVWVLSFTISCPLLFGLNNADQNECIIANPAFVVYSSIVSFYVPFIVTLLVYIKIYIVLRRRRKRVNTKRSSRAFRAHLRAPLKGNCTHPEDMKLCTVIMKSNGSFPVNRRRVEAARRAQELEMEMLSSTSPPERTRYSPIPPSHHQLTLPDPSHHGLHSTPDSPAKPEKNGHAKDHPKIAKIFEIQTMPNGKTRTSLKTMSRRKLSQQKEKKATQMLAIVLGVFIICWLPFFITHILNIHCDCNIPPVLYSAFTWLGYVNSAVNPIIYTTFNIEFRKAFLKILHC
UniProt P06213, whole entry, looked up: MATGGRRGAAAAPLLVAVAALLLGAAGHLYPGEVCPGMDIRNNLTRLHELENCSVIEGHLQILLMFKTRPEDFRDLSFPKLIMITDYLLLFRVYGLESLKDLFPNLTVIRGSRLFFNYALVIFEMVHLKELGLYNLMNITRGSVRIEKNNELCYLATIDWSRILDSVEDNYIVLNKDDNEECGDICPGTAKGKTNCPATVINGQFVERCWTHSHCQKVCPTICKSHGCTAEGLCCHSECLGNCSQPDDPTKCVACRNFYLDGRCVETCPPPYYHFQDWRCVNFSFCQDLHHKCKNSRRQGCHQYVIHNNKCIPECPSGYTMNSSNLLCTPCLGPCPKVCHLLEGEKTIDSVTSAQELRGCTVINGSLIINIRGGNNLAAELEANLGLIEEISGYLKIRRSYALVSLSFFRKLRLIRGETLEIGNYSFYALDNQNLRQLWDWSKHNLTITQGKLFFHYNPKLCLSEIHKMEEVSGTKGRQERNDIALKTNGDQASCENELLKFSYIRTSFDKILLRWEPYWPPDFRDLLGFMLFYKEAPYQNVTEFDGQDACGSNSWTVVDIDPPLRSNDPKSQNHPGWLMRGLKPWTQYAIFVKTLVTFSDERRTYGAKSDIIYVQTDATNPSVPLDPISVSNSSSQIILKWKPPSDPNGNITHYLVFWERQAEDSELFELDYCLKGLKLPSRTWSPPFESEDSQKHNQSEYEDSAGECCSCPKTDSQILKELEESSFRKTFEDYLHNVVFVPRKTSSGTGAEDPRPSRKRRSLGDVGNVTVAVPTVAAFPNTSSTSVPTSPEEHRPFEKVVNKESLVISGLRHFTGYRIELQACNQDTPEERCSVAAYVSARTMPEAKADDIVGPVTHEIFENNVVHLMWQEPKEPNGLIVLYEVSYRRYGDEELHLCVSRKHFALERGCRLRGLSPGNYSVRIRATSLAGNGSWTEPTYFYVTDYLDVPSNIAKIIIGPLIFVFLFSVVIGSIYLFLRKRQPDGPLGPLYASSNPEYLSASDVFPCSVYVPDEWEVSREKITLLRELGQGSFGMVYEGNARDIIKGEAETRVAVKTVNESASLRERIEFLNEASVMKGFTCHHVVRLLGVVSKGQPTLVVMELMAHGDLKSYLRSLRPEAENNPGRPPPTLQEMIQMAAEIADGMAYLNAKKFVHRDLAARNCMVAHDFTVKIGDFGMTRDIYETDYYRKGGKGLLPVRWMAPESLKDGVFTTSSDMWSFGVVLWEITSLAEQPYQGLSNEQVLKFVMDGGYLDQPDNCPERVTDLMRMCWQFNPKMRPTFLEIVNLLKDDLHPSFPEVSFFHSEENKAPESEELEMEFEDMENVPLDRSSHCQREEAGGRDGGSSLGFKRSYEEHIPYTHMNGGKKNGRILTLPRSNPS
UniProt P22086, whole entry, looked up: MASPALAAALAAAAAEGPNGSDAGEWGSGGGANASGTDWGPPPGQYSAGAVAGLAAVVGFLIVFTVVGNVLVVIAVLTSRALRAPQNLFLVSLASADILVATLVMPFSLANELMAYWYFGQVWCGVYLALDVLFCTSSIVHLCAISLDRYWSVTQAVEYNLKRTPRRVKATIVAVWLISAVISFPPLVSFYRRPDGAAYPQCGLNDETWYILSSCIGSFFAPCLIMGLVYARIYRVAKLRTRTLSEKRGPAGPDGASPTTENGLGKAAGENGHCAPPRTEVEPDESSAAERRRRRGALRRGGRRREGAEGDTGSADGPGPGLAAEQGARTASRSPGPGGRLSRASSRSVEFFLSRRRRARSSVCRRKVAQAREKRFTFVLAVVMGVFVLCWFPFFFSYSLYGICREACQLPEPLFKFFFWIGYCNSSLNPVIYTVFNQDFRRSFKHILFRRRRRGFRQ
UniProt P19328, whole entry, looked up: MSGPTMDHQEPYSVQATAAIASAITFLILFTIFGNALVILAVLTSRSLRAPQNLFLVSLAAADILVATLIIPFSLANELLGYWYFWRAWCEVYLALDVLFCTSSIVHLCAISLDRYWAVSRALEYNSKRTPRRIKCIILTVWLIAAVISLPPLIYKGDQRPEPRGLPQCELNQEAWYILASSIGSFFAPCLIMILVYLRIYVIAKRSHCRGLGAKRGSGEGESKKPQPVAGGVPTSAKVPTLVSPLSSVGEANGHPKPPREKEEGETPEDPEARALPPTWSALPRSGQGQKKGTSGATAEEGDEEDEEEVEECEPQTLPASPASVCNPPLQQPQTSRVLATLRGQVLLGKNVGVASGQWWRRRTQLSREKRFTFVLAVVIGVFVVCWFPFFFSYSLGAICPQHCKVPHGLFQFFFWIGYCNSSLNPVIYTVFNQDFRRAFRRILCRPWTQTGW
UniProt P22909, whole entry, looked up: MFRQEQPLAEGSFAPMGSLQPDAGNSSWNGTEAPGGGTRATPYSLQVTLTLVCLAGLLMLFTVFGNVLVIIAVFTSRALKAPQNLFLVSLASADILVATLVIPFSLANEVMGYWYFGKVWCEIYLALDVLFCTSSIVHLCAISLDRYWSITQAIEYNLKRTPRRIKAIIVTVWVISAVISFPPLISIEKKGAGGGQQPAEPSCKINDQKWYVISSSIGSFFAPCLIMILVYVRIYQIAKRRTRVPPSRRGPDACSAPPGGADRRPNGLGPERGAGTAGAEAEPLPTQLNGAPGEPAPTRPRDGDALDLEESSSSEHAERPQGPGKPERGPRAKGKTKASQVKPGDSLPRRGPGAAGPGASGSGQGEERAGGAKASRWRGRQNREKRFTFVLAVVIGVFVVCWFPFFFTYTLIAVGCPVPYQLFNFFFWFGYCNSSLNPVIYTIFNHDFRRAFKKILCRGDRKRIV

Active and inactive are the calls of the source. No cut-off for these calls is given here. A value given as a limit tells only on which side of the number the result lay.

Consider `Cc1ccc(C(=O)CBr)cc1`, for which the inhibition in [1] is under 10%; in assay [2], 15%; in the assay filed under Rattus norvegicus [3] it was under 10%; in the assay listed under Rattus norvegicus [5] it was under 10%; in the assay listed under Rattus norvegicus [6] it was under 10%; in assay [7], under 10%. Moreover, the inhibition in [9] was 10%; in [10], under 10%; in [11], 69%; in the assay filed under Bos taurus it was 38%; in [12], 10%; in the assay filed under Rattus norvegicus [14] it was under 10%. The inhibition entry in assay [4] was “inactive”. The inhibition result in assay [8] and in assay [13] was “Active” in each case.
Take `COc1ccc(C(=O)CBr)cc1`: the inhibition result in [8] and in assay [13] was “Active” in each case.

In general, inhibition refers to the percentage by which the read-out fell short of the control.

The record behind these values is ChEMBL document CHEMBL1800071, “Switching reversibility to irreversibility in glycogen synthase kinase 3 inhibitors: clues for specific design of new compounds” (J Med Chem, 2011).
